Experimental data published in ChEMBL document CHEMBL1142710, “3D-QSAR comparative molecular field analysis on opioid receptor antagonists: pooling data from different studies” (J Med Chem, 2005).

Protein sequences, listed by entry. Tags and fused reporters are not part of them.
UniProt P33533, whole entry, looked up: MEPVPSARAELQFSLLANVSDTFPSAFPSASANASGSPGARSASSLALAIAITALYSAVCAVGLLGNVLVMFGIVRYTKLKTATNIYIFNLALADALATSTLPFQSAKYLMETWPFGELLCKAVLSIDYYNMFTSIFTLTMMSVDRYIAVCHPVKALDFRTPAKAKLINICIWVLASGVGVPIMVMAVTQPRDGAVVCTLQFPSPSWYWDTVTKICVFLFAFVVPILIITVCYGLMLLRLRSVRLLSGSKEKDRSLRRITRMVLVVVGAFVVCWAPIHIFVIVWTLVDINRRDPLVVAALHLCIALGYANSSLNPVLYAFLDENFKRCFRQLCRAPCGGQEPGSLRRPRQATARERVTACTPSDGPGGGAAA
UniProt P33535, whole entry, looked up: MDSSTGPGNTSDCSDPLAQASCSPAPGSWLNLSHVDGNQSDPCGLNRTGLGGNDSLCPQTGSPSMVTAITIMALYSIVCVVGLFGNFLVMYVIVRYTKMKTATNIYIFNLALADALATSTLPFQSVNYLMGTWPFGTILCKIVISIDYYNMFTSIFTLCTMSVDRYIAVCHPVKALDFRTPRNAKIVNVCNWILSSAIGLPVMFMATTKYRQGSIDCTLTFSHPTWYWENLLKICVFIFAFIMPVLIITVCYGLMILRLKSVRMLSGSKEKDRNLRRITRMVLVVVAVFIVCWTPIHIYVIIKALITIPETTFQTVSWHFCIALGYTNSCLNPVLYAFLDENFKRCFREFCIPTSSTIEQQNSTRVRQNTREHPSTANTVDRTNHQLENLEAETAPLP

Assays:
[1] = molecular target: Opioid receptors; mu & delta (Rattus norvegicus) (UniProt P33533+P33535); test: Ratio of affinity against Opioid receptor mu 1 to that of Opioid receptor delta 1 expressed as selectivity ratio; assay type: protein assay
[2] = Ratio of affinity against Opioid receptor kappa 1 to that of Opioid receptor delta 1 expressed as selectivity ratio

Compound Oc1ccc2c3c1O[C@H]1c4[nH]c5ccccc5c4C[C@@]4(O)[C@@H](C2)N(CC2CC2)CC[C@]314 [NALTRINDOLE] has a Selectivity ratio [1] of 120 and a Selectivity ratio [2] of 138.
